This is a selection; strong and weak results do not stand in their true shares. Some of these compounds have results that are not shown, active ones among them. Activity calls are given as the source filed them. Calls come from the whole dose curve; as a rule, active = well fitted inhibition curve with a large enough effect; inconclusive = small, poorly fitted or top-dose-only effect; inactive = no such curve, though single readings can be large or run the other way.
Target: Sphingomyelin phosphodiesterase (Homo sapiens) (UniProt P17405)
Assay: Inhibitors of Secretory Acid Sphingomyelinase (S-ASM): qHTS
Details: placental ASM, HMU-PC fluorogenic substrate (series up to 57.5 µM), 60 min; at 57.5 µM (top of the series)

Protein sequences, listed by entry. Tags and fused reporters are not part of them. Residues count along the entry.
UniProt P17405, 47-631 limits assumed: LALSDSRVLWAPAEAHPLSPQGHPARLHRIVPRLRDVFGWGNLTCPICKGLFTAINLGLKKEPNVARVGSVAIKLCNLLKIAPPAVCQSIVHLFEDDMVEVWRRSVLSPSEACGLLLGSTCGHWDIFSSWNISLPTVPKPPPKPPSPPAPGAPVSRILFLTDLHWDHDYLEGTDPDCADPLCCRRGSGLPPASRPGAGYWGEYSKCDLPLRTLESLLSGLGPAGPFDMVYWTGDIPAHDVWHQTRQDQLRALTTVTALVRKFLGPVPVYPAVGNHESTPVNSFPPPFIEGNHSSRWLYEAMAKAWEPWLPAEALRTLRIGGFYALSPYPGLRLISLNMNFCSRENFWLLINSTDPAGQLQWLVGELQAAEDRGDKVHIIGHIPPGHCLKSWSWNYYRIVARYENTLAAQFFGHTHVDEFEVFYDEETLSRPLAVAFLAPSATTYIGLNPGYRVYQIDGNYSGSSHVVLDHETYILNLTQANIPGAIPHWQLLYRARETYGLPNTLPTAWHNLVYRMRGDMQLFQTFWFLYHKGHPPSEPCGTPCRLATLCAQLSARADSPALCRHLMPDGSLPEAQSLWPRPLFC

Structure (SMILES) | activity change, negative = inhibition
O=C(NCC1(N2CCCCC2)CCCCC1)c1cc(F)c(F)cc1Cl | inactive: 0.15%
C=CCN1CCN(CCOC(=O)C(O)(c2ccccc2)c2ccccc2)CC1 | inactive: 5.4%
COc1ccc(C(=O)NCC2(N(C)C)CCCCC2)cc1 | inactive: -0.0304%
O=C(NCC1(N2CCCCC2)CCCCC1)c1cccc(Br)c1 | inactive: -1.93%
CCN1CCCC(OC(=O)C2(O)c3ccccc3C=Cc3ccccc32)C1 (stereo not given) | inactive: 5.09%
Cc1cc(C(=O)NCC2(N3CCCCC3)CCCCC2)ccc1[N+](=O)[O-] | inactive: -0.112%
CN(C)c1ccc(C(=O)NCC2(N(C)C)CCCCC2)cc1 | inactive: 2.24%
CN(C)C1CCCC1OC(=O)C(O)(c1ccccc1)c1ccccc1 (stereo not given) | inactive: 4.24%
Cc1ccccc1C(=O)NCC1(N2CCCCC2)CCCCC1 | inactive: 4.24%
COc1cc(SC)ccc1C(=O)NCC1(N(C)C)CCCCC1 | inactive: -1.13%
CCN(CC)CC(C)C(C)OC(=O)C(O)(c1ccccc1)c1ccccc1 (stereo not given) | inactive: 3.47%
CC(C)N1C(=O)CC2(CCN(CCOC(=O)C(O)(c3ccccc3)c3ccccc3)CC2)C1=O | inactive: -1.43%
Cc1ccc(C(=O)NCC2(N3CCCCC3)CCCCC2)cc1 | inactive: 8.02%
O=C(NCC1(N2CCCCC2)CCCCC1)c1cc([N+](=O)[O-])ccc1Cl | inactive: 0.501%
CN1[C@@H]2CC[C@H]1CC(OC(=O)C(O)(c1ccccc1)c1ccccc1)C2 (stereo not given in full) | inactive: 1.23%
COc1ccc(Br)c(C(=O)NCC2(N3CCCCC3)CCCCC2)c1 | inactive: -1.67%
O=C(OCCN1CCCC1)C(O)(c1ccccc1)c1ccccc1 | inactive: -0.955%
CC(C)Oc1ccc(C(=O)NCC2(N(C)C)CCCCC2)cc1 | inactive: -3.21%
CN(C)c1cccc(C(=O)NCC2(N(C)C)CCCCC2)c1 | inactive: 19.9%
O=C(OC1CN2CCC1CC2)C(CO)(c1ccccc1)c1ccccc1 (stereo not given) | inactive: 0.74%
COc1ccc(Cl)cc1C(=O)NCC1(N(C)C)CCCCC1 | inactive: 0.573%
COc1cccc(C(=O)NCC2(N3CCCCC3)CCCCC2)c1 | inactive: -1.38%
O=C(NCC1(N2CCCCC2)CCCCC1)c1cccc(Cl)c1 | inactive: -2.95%
CN(C)C1(CNC(=O)c2ccc(Br)cc2)CCCCC1 | inactive: 5.17%
COc1cc(C(=O)NCC2(N(C)C)CCCCC2)c([N+](=O)[O-])cc1OC | inactive: 2.76%

— PubChem BioAssay AID504937 (National Center for Advancing Translational Sciences (NCATS), 2011)
